Experiments:
[1] = target: Estrogen receptor alpha (ERα) (Homo sapiens, UniProt P03372); experiment: Receptor Selection and Amplification Technology (R-SAT) functional receptor assay, ERα; details: for % Efficacy ERα: NIH3T3 cells, efficacy relative to the reference ligand Estrone; for pEC50 ERα: transfected NIH3T3 cells, agonist activity
Method: The functional receptor assay, Receptor Selection and Amplification Technology (R-SAT™), was used with minor modifications from the procedure described in U.S. Pat. No. 5,707,798, which is hereby incorporated by reference in its entirety, to screen compounds for efficacy at the Estrogen receptors alpha and beta (ERα, ERβ). NIH3T3 cells were grown in roller bottles to 70-80% confluence. Cells were then transfected for 12-16 h with plasmid DNAs using Polyfect (Qiagen Inc.) as per the manufacturer's protocol. R-SAT assays were typically performed by transfecting 30 ug/bottle of receptor and 50 ug/bottle of β-galactosidase plasmid DNA. All receptor and helper constructs used were in mammalian expression vectors. Helpers are defined as signaling molecules that modulate both ligand-dependent and/or ligand-independent function of the ER receptors, typically co-activators and kinases. NIH3T3 cells were transfected for 12-16 h, then trypsinized and frozen in DMSO. Frozen cells were later thawed, plated at 10,000-40,000 cells per well of a 96 well plate containing 4-(1-Phenyl-cyclohexyl)-phenol. Cells were then grown in a humidified atmosphere with 5% ambient CO2 for five days. Media was then removed from the plates and marker gene activity was measured by the addition of the β-galactosidase substrate o-nitrophenyl β-D-galactopyranoside (ONPG, in PBS with 5% NP-40). The resulting colorimetric reaction was measured in a spectrophotometric plate reader (Titertek Inc.) at […]. All data were analyzed using the computer program XLFit (IDBSm).
These experiments provided a molecular profile, or fingerprint, for each agent tested at the human Estrogen receptors.

Amino acid sequences for entries named in this document (tags omitted).
UniProt P03372, whole entry: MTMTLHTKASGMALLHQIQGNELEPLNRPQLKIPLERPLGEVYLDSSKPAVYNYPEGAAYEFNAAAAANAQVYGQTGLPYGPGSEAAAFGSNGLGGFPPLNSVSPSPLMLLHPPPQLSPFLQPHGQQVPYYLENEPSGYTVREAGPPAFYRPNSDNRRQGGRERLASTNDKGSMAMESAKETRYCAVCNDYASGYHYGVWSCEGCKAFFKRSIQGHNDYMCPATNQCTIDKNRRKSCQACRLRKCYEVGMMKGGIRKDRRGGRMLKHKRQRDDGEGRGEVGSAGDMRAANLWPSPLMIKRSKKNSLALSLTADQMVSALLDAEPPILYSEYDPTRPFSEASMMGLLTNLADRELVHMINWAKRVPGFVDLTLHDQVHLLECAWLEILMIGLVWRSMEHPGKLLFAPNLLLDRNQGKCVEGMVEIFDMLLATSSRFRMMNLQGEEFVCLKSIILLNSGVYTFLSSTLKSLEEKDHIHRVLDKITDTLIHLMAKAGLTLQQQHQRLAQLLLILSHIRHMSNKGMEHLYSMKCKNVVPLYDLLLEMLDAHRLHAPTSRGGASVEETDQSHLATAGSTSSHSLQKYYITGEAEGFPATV
UniProt Q92731, whole entry: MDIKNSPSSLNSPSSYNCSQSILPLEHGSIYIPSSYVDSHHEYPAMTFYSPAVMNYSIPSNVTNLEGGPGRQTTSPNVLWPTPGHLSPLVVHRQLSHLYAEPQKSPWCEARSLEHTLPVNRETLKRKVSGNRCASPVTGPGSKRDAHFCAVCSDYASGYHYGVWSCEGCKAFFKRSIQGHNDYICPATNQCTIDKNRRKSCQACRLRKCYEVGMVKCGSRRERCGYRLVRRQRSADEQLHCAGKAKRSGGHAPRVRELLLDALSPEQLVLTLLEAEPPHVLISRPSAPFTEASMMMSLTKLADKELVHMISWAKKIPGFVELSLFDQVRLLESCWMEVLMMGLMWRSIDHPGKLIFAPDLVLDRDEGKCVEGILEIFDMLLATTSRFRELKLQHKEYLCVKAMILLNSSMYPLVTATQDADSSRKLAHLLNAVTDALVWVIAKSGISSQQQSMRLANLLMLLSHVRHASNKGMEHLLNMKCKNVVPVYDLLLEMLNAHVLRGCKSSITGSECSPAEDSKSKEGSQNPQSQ

[2] = target: Estrogen receptor beta (ERβ) (Homo sapiens, UniProt Q92731); experiment: Receptor Selection and Amplification Technology (R-SAT) functional receptor assay, ERβ; details: for % Efficacy ERβ: NIH3T3 cells, efficacy relative to the reference ligand Estrone; for pEC50 ERβ: transfected NIH3T3 cells, agonist activity

Compound: Oc1ccc(C2(c3c(F)cccc3Cl)CCCCC2)cc1
- % Efficacy ERα [1]: 13%
- pEC50 ERα [1]: <5.0
- % Efficacy ERβ [2]: 25%
- pEC50 ERβ [2]: 7.0

Compound: Oc1ccc(C2(c3ccccc3F)CCCCC2)cc1F
- % Efficacy ERα [1]: 30%
- pEC50 ERα [1]: 5.8
- % Efficacy ERβ [2]: 57%
- pEC50 ERβ [2]: 7.1

Source: patent US20050256210A1, “Compounds with activity at estrogen receptors” (priority 2004, published 2005)
